This passage reports IC50 results from patent publication US10004732B2 (Novartis AG, priority 2014, dated 2018).

Chains of the proteins cited; added tags and fusions are not shown.
UniProt P42336, whole entry: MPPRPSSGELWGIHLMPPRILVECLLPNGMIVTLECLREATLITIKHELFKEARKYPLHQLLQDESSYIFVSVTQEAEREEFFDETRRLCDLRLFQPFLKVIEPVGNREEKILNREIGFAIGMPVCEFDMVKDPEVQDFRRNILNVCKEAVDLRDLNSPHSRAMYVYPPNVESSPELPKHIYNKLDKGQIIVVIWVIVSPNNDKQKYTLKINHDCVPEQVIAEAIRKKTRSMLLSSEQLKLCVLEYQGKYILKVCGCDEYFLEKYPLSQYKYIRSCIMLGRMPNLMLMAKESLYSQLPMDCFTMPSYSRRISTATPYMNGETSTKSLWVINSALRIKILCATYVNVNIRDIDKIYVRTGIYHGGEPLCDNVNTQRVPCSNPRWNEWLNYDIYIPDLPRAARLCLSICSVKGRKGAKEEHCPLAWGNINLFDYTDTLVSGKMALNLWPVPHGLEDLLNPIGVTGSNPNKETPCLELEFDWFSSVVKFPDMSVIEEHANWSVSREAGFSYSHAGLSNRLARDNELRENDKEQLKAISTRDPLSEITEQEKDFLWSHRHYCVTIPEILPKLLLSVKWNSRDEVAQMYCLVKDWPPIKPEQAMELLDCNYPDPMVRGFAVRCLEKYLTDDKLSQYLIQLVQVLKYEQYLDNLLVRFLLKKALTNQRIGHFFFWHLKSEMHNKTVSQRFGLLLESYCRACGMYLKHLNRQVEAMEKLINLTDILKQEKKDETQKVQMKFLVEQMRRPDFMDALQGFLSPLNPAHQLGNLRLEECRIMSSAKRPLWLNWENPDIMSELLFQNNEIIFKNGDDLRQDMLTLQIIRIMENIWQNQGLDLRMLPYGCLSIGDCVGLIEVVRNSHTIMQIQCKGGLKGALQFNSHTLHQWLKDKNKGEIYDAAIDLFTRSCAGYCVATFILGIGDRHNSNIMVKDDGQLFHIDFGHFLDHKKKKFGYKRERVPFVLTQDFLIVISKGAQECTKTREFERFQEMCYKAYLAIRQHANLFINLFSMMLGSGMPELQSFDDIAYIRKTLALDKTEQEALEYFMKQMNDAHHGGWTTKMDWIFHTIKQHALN

In this experiment the target is PI 3-kinase alpha (Homo sapiens, UniProt P42336). Briefly: Cellular assay H2, p-AKT (Ser473) in Rat-1 cells, HTRF format. The experiment is classed as cell-based. To be noted: asterisked data: version H2 (HTRF), read-out: Assay H PI3Kα.

In the case of `Cc1nc(N)ncc1-c1ccc(Cl)c(S(=O)(=O)NCCO)c1` [(xii), reference compound], the IC50 is more than 10 µM.
